From patent US8703768B2, “Nitrogen containing heteroaryl compounds” (Hoffmann-La Roche Inc., priority 2010, dated 2014)

Protein sequences, listed by entry. Tags and fused reporters are not part of them. Chains listed by the source or under a name are the forms on record and can include a tag or linker. Residues count along the entry.
UniProt Q9Y233, 290-1055 with tags or gaps limits assumed: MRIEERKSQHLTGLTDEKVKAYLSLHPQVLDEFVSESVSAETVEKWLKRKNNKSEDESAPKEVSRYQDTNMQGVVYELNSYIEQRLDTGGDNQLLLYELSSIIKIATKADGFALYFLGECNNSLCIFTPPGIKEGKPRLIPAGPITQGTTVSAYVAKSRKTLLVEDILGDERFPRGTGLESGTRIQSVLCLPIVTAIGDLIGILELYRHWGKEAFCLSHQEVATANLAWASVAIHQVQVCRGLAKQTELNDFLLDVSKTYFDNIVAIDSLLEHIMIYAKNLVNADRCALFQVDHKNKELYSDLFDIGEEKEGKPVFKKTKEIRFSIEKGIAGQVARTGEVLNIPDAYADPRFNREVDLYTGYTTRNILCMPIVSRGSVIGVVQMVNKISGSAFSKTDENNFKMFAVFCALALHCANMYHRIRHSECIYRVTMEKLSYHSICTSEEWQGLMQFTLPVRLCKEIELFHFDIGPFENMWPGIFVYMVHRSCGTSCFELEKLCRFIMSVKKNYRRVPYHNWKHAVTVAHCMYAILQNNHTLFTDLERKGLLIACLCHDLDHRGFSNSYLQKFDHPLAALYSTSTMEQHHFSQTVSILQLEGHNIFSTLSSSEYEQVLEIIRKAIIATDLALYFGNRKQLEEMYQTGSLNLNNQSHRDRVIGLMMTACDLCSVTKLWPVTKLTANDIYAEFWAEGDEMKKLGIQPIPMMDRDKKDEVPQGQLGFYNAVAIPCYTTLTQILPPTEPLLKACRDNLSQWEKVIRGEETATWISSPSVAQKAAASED

Molecular target: human PDE10A (Homo sapiens (Human), UniProt Q9Y233)
Test: human PDE10A full length Scintillation Proximity Assay (SPA)
Assay type: biochemical
Conditions: read-out: PDE10A inhibition IC50; 50 nM cGMP and 50 nM [3H]-cGMP, 20 minutes at room temperature

Compound | IC50 [nM]
CNC(=O)c1c(NC(=O)c2nc(C(C)(C)C)ncc2Nc2cncnc2)cnn1C | 2.5
CNC(=O)c1c(NC(=O)c2nc(C(C)C)ncc2Nc2cncnc2)cnn1C | 12.8
